Test results from PubChem BioAssay AID602363 (Broad Institute, 2012).
Out of some 350,000 compounds screened, about 450 (0.13%) were called active. The entries come from a sample that favours actives as a whole. Values without a mark were called inactive.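 How the source made its calls: active means replicate mean at a twofold rise or more (about +100% in these data); inactive means the rest.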

Test: UUG initiation codon usage in yeast – whole organism, S. cerevisiae, single point, plate reader, primary screen (AID 602363);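 further: firefly luciferase made from a UUG start codon reports start codon fidelity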
Settings: S. cerevisiae UUG-firefly luciferase reporter, luminescence/redox ratio; at 18.7 µM; active compounds read high

SMILES | activity score
COc1cccc(S(=O)(=O)N[C@@H]2CC[C@@H](CCNC(=O)Cc3ccncc3)O[C@H]2CO)c1 | 0.154%
C[C@@H]1CN([C@@H](C)CO)C(=O)c2cc(-c3cccnc3)cnc2O[C@@H]1CN(C)C(=O)C1CC1 | -5.34%
O=C(C[C@@H]1C[C@@H]2c3cc(NC(=O)Nc4ccc(C(F)(F)F)cc4)ccc3O[C@@H]2[C@@H](CO)O1)NCCc1ccccc1 | -18.2%
C[C@@H]1CCCCO[C@H](CN(C)S(=O)(=O)c2cccs2)[C@@H](C)CN([C@@H](C)CO)C(=O)c2cc(NC(=O)NC3CCCCC3)ccc2O1 | -8.53%
CO[C@@H]1CN(C)C(=O)c2cc(NC(=O)C3CC3)ccc2OC[C@@H](C)N(C(=O)c2ccncc2)C[C@H]1C | 0.045%
CN(C)C(=O)c1ccc(-c2ccc([C@@H]3[C@@H](CO)N4CCCCN(Cc5cncnc5)C[C@@H]34)cc2)cc1 | -3.82%
O=C(c1cccnc1)N1C[C@H]2[C@@H](c3ccccc31)[C@H](CO)N2C(=O)C1CCCCC1 | -1.65%
O=C(c1cccnc1)N1C[C@@H]2[C@H](c3ccccc31)[C@@H](CO)N2C(=O)Nc1ccc(F)cc1 | 52.2%
O=C(c1ccccc1F)N1C[C@@H]2[C@H](c3ccccc31)[C@H](CO)N2C(=O)C1CCCC1 | 6.27%
O=C(C1CCC1)N1C[C@@H]2[C@H](c3ccccc31)[C@H](CO)N2C(=O)c1ccccc1 | 53.9%
O=C(c1cccnc1)N1C[C@H]2[C@@H](c3ccccc31)[C@H](CO)N2C(=O)C1CC1 | 101% (active)
O=C(C1CCC1)N1C[C@H]2[C@@H](c3ccccc31)[C@@H](CO)N2C(=O)c1ccccc1F | 115% (active)
COc1ccccc1-c1cn(CC[C@H]2CC[C@H](NC(=O)C3CCOCC3)[C@@H](CO)O2)nn1 | -2.48%
C[C@@H]1CN([C@H](C)CO)S(=O)(=O)c2ccc(-c3ccccc3)cc2O[C@@H]1CN(C)C(=O)C1CC1 | 1.27%
Cn1cnc(CCNC(=O)C[C@H]2CC[C@H]3[C@@H](COC[C@H](O)CN3C(=O)C3CCCC3)O2)c1 | 2.13%
C[C@@H]1CCCCO[C@@H](CN(C)C(=O)Nc2ccc(F)cc2)[C@H](C)CN([C@@H](C)CO)C(=O)c2cc(NS(=O)(=O)c3ccccc3)ccc2O1 | -2.99%
CCCC(=O)Nc1ccc2c(c1)C(=O)N(C)[C@H]1CC[C@@H](CC(=O)NCc3ccccc3)O[C@@H]1CO2 | 6.07%
COc1cccc(S(=O)(=O)N2C[C@@H](O)COC[C@@H]3O[C@H](CC(=O)N4CCN(C)CC4)CC[C@H]32)c1 | 25.3%
O=C(C1CCC1)N1C[C@H]2[C@@H](c3ccccc31)[C@H](CO)N2C(=O)Nc1cccc(F)c1 | 4.33%
CN1c2ccc(C#Cc3cccnc3)cc2[C@H]2[C@H](CCN2S(=O)(=O)c2ccccc2)[C@@H]1CO | -20.3%
C[C@H]1CN([C@@H](C)CO)C(=O)c2cc(NC(=O)Cn3cnnn3)ccc2O[C@@H]1CN(C)CC1CCCCC1 | -6.95%

SMILES | activity score
C[C@H]1CN([C@@H](C)CO)C(=O)c2cc(Br)cnc2O[C@@H]1CN(C)C(=O)c1ccccc1F | 1.14%
C[C@@H]1CCCCO[C@H](CN(C)Cc2ccc3c(c2)OCO3)[C@H](C)CN([C@@H](C)CO)C(=O)c2cc(NS(=O)(=O)c3cn(C)cn3)ccc2O1 | 0.464%
C[C@H]1CCCCO[C@H](CN(C)CC2CCCCC2)[C@@H](C)CN([C@@H](C)CO)C(=O)c2cc(NS(=O)(=O)c3ccc(Cl)cc3)ccc2O1 | 19.2%
Cc1noc(C)c1S(=O)(=O)Nc1ccc2c(c1)C(=O)N([C@@H](C)CO)C[C@@H](C)[C@@H](CN(C)S(=O)(=O)c1ccccc1)O2 | -1.76%
C[C@H]1CN([C@@H](C)CO)C(=O)c2cccc(NC(=O)C3CC3)c2O[C@@H]1CN(C)S(=O)(=O)c1ccc(F)cc1 | -5.43%
CN(C)CC(=O)Nc1ccc2c(c1)[C@@H]1C[C@H](CC(=O)NCc3ccc(Cl)cc3)O[C@@H](CO)[C@@H]1O2 | 26.4%
COCC(=O)Nc1ccc2c(c1)C(=O)N(C)[C@@H]1CC[C@H](CC(=O)NCC3CCCCC3)O[C@H]1CO2 | -1.78%
CNC(=O)C[C@@H]1CC[C@@H]2[C@@H](COc3ccc(NC(=O)Cc4cccs4)cc3C(=O)N2C)O1 | 3.32%
CC(C)C#Cc1ccc2c(c1)O[C@@H](CN(C)C(=O)C1CC1)[C@H](C)CN([C@H](C)CO)S2(=O)=O | 1.46%
O=S(=O)(Cc1ccccc1)N1CCCCN2[C@H](CO)[C@@H](c3ccc(-c4cncnc4)cc3)[C@H]2C1 | -10.2%
COc1ccc(NC(=O)N(C)C[C@@H]2OCCCC[C@H](C)Oc3ccc(NS(=O)(=O)c4cccs4)cc3C(=O)N([C@@H](C)CO)C[C@@H]2C)cc1 | -14.6%
C[C@H]1CN([C@@H](C)CO)C(=O)c2cccc(NS(C)(=O)=O)c2O[C@@H]1CN(C)C(=O)Nc1ccc(F)cc1 | -0.709%
COCC(=O)N(C)C[C@H]1Oc2ncc(-c3cccc(OC)c3)cc2C(=O)N([C@H](C)CO)C[C@H]1C | 11.3%
CO[C@H]1CN(C)C(=O)c2ccc(NS(=O)(=O)c3cn(C)cn3)cc2OC[C@@H](C)N(C)C[C@@H]1C | -8.25%
C[C@@H]1CN([C@H](C)CO)C(=O)Cc2cc(NC(=O)CCCN(C)C)ccc2O[C@H]1CN(C)S(=O)(=O)c1cccs1 | 4.48%
CCC(=O)N1[C@@H](CO)[C@@H]2c3ccccc3N(C(=O)c3cnccn3)C[C@@H]21 | -8.18%
O=C(N[C@H]1CC[C@@H](CCNS(=O)(=O)Cc2ccccc2)O[C@H]1CO)c1ccccc1F | 170% (active)
CC(C)NC(=O)N[C@@H]1CC[C@@H](CCNS(=O)(=O)Cc2ccccc2)O[C@@H]1CO | -4.26%
O=C(N[C@@H]1CC[C@@H](CCNS(=O)(=O)Cc2ccccc2)O[C@@H]1CO)c1ccccc1F | -4.32%
C[C@@H]1CCCCO[C@H](CN(C)C(=O)Cc2ccccc2)[C@@H](C)CN([C@@H](C)CO)C(=O)c2cc(NC(=O)c3ccccc3)ccc2O1 | 0.371%
CC(C)N1C(=O)[C@@]2(Cc3ccccc31)c1ccccc1C(=O)N(C1CCCCC1)[C@H]2c1ccc(CO)cc1 | 69%

SMILES | activity score
COc1ccc(CCN2C(=O)[C@@]3(Cc4ccccc42)c2ccccc2C(=O)N(Cc2ccccc2C(F)(F)F)[C@H]3c2ccc(CO)cc2)cc1 | 153% (active)
COCCCNC(=O)[C@@]1(C)c2ccccc2C(=O)N(Cc2ccc(OC(F)(F)F)cc2)[C@H]1c1ccc(CO)cc1 | 2.89%
COc1ccccc1NC(=O)N(C)C[C@@H]1Oc2ncc(Br)cc2C(=O)N([C@@H](C)CO)C[C@@H]1C | 19.9%
CCOC(=O)C(=Cc1ccccc1)C(=O)c1ccccc1 | -13%
CCOC(=O)C(=Cc1ccccc1OC)C(=O)OCC | 448% (active)
CCOC(=O)C(=CNc1cccc(C)n1)C(=O)OCC | -12%
COc1ccc(-c2cnc3c(c2)C(=O)N([C@@H](C)CO)C[C@@H](C)[C@H](CN(C)C)O3)cc1 | -4.93%
N#Cc1cccc(-c2ccc3c(c2)[C@H]2[C@H](CCN2S(=O)(=O)c2ccc(F)cc2)[C@@H](CO)N3)c1 | -15.3%
C[C@H]1CN([C@@H](C)CO)C(=O)Cc2cc(NC(=O)Nc3ccccc3)ccc2O[C@H]1CN(C)S(=O)(=O)c1cn(C)cn1 | 2.53%
C[C@H](CO)N1C[C@H](C)[C@@H](CN(C)Cc2cccnc2)Oc2cc(C#CC3CC3)ccc2S1(=O)=O | 8.44%
COc1cccc(C(=O)Nc2ccc3c(c2)OC[C@H](C)N(C(C)=O)C[C@@H](C)[C@@H](OC)CN(C)C3=O)c1 | 43.4%
C/C=C/c1ccc2c(c1)O[C@@H](CN(C)C(=O)Cc1ccccc1)[C@H](C)CN([C@@H](C)CO)S2(=O)=O | 58.8%
CC(C)NC(=O)N(C)C[C@H]1Oc2ccc(NC(=O)CCC(F)(F)F)cc2CC(=O)N([C@@H](C)CO)C[C@@H]1C | -4.49%
CCCC(=O)Nc1ccc2c(c1)C(=O)N(C)[C@H]1CC[C@@H](CC(=O)NCC(F)(F)F)O[C@@H]1CO2 | -2.34%
CO[C@@H]1CN(C)C(=O)c2cc(NC(=O)C3CCCC3)ccc2OC[C@H](C)N(C)C[C@@H]1C | 3.06%
Cc1noc(C)c1NC(=O)Nc1ccc2c(c1)CC(=O)N([C@@H](C)CO)C[C@@H](C)[C@@H](CN(C)C(=O)NC(C)C)O2 | -0.961%
C[C@H](O)C#Cc1cnc2c(c1)C(=O)N([C@H](C)CO)C[C@H](C)[C@H](CN(C)C(=O)c1ccc(F)cc1)O2 | 9.52%
CC(C)NC(=O)N(C)C[C@@H]1Oc2c(cccc2N(C)C)C(=O)N([C@@H](C)CO)C[C@H]1C | -11.2%
C[C@H]1CN([C@@H](C)CO)C(=O)c2cc(NS(=O)(=O)c3cccs3)ccc2O[C@@H]1CN(C)C(=O)Nc1ccccc1 | -9.65%
C[C@@H]1CN([C@@H](C)CO)S(=O)(=O)c2ccc(C#CCN(C)C)cc2O[C@@H]1CN(C)CC1CC1 | 33.3%
C[C@@H]1CCCCO[C@@H](CN(C)Cc2ccc(C(=O)O)cc2)[C@H](C)CN([C@@H](C)CO)C(=O)c2cc(NC(=O)C3CCCCC3)ccc2O1 | 3.06%
